Measurements published in US8815846B2, “Family of antichagasics derived from imidazo[4,5-C][1,2,6]thiadiazine 2,2-dioxide” (Universidad de la Republica de Uruguay, priority 2009, dated 2014).

Tested on: J774 murine macrophages
Assay: Non-specific cytotoxicity against J774 murine macrophages (MTT/formazan)
Format: cell-based
Conditions: 48 hours, MTT
Procedure: The cellular viability was determined based on the conservation of mitochondrial activity by the MTT/formazan method.

With `CC(=O)N1CCN(c2ccc(OCC3COC(Cn4ccnc4)(c4ccc(Cl)cc4Cl)O3)cc2)CC1` (stereo not drawn) [Ketoconazole, reference compound] the “PC J774 macrophages (%) (percentage of non-specific cytotoxicity)” value (100 μM compound) was 86.0%, the “PC J774 macrophages (%) (percentage of non-specific cytotoxicity)” value (200 μM compound) was 98.0% and the “PC J774 macrophages (%) (percentage of non-specific cytotoxicity)” value (400 μM compound) was 87.0%.
